Results reported in patent US20260034119A1, “5-METHOXY-N,N-[…][…], THEIR […], AND METHODS FOR TREATMENT OF NEUROLOGICAL, […], AND SUBSTANCE USE DISORDERS” (priority 2023, published 2026).

Amino acid sequences for entries named in this document (tags omitted).
UniProt P08908, whole entry: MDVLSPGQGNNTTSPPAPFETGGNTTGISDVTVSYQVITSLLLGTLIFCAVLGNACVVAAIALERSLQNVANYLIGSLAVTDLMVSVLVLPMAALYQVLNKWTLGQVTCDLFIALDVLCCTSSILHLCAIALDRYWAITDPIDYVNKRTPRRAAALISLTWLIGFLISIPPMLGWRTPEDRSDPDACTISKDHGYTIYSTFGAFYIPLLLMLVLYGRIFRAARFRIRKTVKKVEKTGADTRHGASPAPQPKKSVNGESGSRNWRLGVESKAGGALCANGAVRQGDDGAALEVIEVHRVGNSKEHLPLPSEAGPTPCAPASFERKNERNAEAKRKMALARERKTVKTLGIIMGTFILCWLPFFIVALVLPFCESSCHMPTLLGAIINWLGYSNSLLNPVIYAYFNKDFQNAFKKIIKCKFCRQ

Target: 5-HT1A (Homo sapiens, UniProt P08908)
Experiment: 5-HT1A-mediated cAMP reduction assay (GloSensor, HEK293-T)
Settings: Table 6, commercial ligands

CCCN(CCC)C1CCc2cccc(O)c2C1 (stereo not shown) [Compound 8-OH-DPAT, 8-OH-DPAT, reference compound]
Efficacy as %5HT 5-HT1A cAMP: 108.5 %5HT
